# Reference: patent publication US20130012432A1, “Peptides for Treatment of Obesity” (Novo Nordisk A/S, priority 2010, published 2013)
# Protein sequences, listed by entry. Tags and fused reporters are not part of them. Residues count along the entry.
# UniProt P43220, 24-463: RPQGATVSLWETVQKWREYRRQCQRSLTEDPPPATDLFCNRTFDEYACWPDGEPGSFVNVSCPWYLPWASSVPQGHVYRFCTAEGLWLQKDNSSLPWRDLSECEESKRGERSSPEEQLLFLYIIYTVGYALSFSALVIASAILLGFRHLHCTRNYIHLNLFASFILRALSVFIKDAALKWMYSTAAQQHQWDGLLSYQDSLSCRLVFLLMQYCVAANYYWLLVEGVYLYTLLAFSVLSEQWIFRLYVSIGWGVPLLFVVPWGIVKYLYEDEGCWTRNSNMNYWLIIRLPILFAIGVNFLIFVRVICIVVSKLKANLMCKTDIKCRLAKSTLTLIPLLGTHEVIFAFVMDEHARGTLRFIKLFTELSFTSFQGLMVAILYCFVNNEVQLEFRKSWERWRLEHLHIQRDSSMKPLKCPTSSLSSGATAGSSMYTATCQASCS
# Target: T1, human GLP-1 receptor (Homo sapiens, UniProt P43220)
# T1 construct: expressed in transfected cells; purified plasma membranes
# Assay: Assay (XI) GLP-1 activity assay, stimulation of cAMP formation
# Type: biochemical
# Settings: membranes of BHK467-12A cells expressing human GLP-1 receptor
# From the text: The capture of cAMP is achieved by using a specific antibody conjugated to acceptor beads.
substance,measurement,value
"N-epsilon37-[2-(2-{2-[2-(2-{2-[(S)-4-Carboxy-4-({trans-4-[(19-carboxynonadecanoylamino)methyl]cyclohexanecarbonyl}amino)butyrylamino]ethoxy}ethoxy)acetylamino]ethoxy}ethoxy)acetyl][DesaminoHis7,Glu22,Arg26,Arg34,Lys37]GLP-1-(7-37) [Example G2]",EC50 relative to that of compound G1,about 5 times
